In the assay the test system is E. coli-REC-A bacteria. The assay is described as follows: Prototype sensing device with E. coli-REC-A biosensors, detected optical signal over time. Particulars: 1.5×10^6 or 1.5×10^5 bacteria per reaction chamber, 5 hours, FIGS. 27a-d.

The values that follow come from US20080262321A1, “Early Detection of Harmful Agents: Method, System and Kit” (published 2008).

In the case of `CCn1cc(C(=O)O)c(=O)c2ccc(C)nc21`, the “biochemical reaction (detected optical signal of biosensors)” value is, setting by setting: (5 ppm NA) “significant biochemical reaction”; (10 ppm NA) “significant biochemical reaction”.
